Source: paper PMC8277517, “Anticolon Cancer Properties of Pyrazole Derivatives Acting through Xanthine Oxidase Inhibition” (Journal of Oncology, 2021)

Protein sequences, listed by entry. Tags and fused reporters are not part of them.
UniProt P47989, whole entry: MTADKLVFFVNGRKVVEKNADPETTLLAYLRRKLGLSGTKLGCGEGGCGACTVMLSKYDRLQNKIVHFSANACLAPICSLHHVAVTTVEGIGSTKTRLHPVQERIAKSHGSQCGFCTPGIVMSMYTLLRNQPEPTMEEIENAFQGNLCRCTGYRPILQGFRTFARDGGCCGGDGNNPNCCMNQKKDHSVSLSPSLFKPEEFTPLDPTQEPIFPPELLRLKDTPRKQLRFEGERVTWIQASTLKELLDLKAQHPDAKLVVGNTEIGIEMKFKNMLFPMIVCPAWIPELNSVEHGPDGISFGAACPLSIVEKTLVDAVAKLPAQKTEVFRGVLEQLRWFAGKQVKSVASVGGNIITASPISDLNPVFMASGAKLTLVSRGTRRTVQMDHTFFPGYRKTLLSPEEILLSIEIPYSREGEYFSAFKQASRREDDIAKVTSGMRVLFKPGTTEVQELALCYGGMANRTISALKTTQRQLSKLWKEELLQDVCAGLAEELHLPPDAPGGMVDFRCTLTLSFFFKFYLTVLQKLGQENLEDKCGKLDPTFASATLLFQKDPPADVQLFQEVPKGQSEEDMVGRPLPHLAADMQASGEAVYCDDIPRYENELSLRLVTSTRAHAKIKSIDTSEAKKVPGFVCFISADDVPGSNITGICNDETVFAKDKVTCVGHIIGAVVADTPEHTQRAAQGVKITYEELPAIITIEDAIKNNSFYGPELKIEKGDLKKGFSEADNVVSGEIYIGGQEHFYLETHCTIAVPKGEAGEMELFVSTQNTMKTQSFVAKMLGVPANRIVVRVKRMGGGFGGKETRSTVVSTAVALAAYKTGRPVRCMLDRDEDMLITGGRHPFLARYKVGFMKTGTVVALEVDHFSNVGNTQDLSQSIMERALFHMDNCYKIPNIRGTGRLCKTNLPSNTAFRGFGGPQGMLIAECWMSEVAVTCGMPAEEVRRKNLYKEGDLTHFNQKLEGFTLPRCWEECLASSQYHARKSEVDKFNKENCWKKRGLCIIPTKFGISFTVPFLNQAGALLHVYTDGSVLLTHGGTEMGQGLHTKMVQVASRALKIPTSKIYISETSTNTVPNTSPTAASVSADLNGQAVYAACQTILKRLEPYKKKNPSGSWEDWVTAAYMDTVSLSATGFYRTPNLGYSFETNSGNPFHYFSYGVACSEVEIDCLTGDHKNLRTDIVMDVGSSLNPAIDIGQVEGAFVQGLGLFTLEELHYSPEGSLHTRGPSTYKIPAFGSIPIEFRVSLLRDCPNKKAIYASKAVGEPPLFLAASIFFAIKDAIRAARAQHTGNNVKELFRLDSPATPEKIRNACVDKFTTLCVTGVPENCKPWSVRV

What was measured:
[1] = system: HCT-116 colorectal carcinoma cell line; experiment: Sulforhodamine B (SRB) cytotoxicity assay, HCT-116; type: cell-based, human; details: for IC50: read-out: IC50 (μM) HCT-116, SRB assay, 72 h
[2] = system: MCF-7 breast adenocarcinoma cell line; experiment: Sulforhodamine B (SRB) cytotoxicity assay, MCF-7; type: cell-based, human; details: for IC50: read-out: IC50 (μM) MCF-7, SRB assay, 72 h
[3] = system: HepG2 hepatocellular carcinoma cell line; experiment: Sulforhodamine B (SRB) cytotoxicity assay, HepG2; type: cell-based, human; details: for IC50: read-out: IC50 (μM) HepG2, SRB assay, 72 h
xanthine oxidase (XO) = xanthine oxidase (XO) (Homo sapiens, UniProt P47989); experiment: Xanthine oxidase inhibition assay (uric acid formation, spectrophotometric); type: biochemical; details: for IC50: read-out: IC50 (μM) xanthine oxidase inhibition, IC50 ± SD, triplicate, pH 7.4, 25°C

Row | Compound | folds more active than unsubstituted derivative ([1]; HCT-116, relative to unsubstituted phenyl derivative) | IC50 [1] | times less potent than doxorubicin ([2]; MCF-7, relative to doxorubicin) | IC50 [2] | folds more active than unsubstituted derivative ([3]; HepG2, relative to unsubstituted phenyl derivative) | IC50 [3] | IC50 (xanthine oxidase (XO)) | times more potent than allopurinol (XO inhibition) (xanthine oxidase (XO); relative to allopurinol)
1 | Cc1nn(C(=O)c2ccncc2)c(C)c1N=Nc1ccc(Br)cc1 | > 22 folds | 4.2 µM | 3.7 times | 17.8 µM | > 22 folds | 4.4 µM | 0.83 µM | 18.03 times
2 | Cc1nn(C(=O)c2ccncc2)c(C)c1N=Nc1ccc([N+](=O)[O-])cc1 |  | 17.3 µM |  | 94.2 µM |  | 34.6 µM | 14.5 µM | 
